Reference: PubChem BioAssay AID720709 (National Center for Advancing Translational Sciences (NCATS), 2013)
The entries are a selection whose mix differs from that of the whole data set. Results filed as inconclusive are left out. Activity calls are given as the source filed them. Calls follow the shape of the dose curve; as a rule, active = well fitted inhibition curve with a large enough effect; inconclusive = small, poorly fitted or top-dose-only effect; inactive = no such curve, though single readings can be large or run the other way.

Chains of the proteins cited; added tags and fusions are not shown. Lines headed by an entry give the natural chain unless they say otherwise; changes in a name come on top.
UniProt O95398: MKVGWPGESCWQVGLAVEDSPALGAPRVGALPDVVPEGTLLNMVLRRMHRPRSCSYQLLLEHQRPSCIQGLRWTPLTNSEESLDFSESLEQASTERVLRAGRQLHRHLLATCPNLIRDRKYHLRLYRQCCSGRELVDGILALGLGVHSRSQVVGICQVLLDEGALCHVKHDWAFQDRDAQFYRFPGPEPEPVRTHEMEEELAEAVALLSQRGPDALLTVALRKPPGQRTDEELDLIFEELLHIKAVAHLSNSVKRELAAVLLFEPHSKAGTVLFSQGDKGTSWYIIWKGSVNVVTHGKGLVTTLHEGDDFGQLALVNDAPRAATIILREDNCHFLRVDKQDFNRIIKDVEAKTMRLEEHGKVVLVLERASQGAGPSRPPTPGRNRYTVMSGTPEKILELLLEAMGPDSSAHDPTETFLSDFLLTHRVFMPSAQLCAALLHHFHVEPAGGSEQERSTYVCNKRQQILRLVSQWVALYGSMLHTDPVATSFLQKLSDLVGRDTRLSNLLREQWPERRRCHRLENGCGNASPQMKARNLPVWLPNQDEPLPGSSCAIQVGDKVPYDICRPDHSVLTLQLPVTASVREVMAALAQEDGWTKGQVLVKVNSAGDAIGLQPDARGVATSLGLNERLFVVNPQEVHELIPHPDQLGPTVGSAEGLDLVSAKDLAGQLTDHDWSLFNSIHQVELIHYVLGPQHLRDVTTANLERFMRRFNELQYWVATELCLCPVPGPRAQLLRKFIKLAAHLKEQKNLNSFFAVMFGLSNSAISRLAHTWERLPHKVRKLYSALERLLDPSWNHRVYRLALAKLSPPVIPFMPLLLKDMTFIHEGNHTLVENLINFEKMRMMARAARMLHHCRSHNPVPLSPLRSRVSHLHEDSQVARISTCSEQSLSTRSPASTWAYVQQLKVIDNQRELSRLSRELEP

The compounds below were run against Rap guanine nucleotide exchange factor 3 (Homo sapiens) (UniProt O95398) (assay: qHTS for Antagonist of cAMP-regulated guanine nucleotide exchange factor 3 (EPAC1): primary screen). Settings: EPAC1 GEF assay, Rap1b-BODIPY-GDP exchange fluorescence; at 115 µM (top of the series).
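Also: plate controls were vehicle for no effect and positive control for full effect; nearly all actives have a fitted effect of over 50% in size.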

Q: `COC(=O)C1(C)COP(=O)(Nc2ccccc2)OC1` (stereo unspecified) was tested. Which activity change, negative = inhibition did it give?
A: inactive: -4.67%

Q: How did the activity change, negative = inhibition turn out when `O=P1(N(CCCl)CCCl)OCCCS1` (stereo unspecified) was run?
A: inactive: 2.4%

Q: `O=C(Nc1cc([As](=O)(O)O)ccc1O)c1ccccc1` was tested. Which activity change, negative = inhibition did it give?
A: inactive: -0.623%

Q: Which activity change, negative = inhibition does the source give for `CCN(/C(=N/P(=O)(N1CCOCC1)N1CCOCC1)N1CCOCC1)c1ccc(OC)cc1` here?
A: inactive: 2.16%

Q: How did the activity change, negative = inhibition turn out when `Nc1ccc([As](=O)(O)c2ccc(N)cc2)cc1` was run?
A: inactive: -13.1%

Q: Which activity change, negative = inhibition does the source give for `c1cc(-c2nn[nH]n2)ccc1-c1nn[nH]n1` here?
A: inactive: 11.3%

Q: With `CC1CCN(C(=O)Oc2c(Cl)cc(Cl)c3cccnc23)CC1` as the compound, how does the activity change, negative = inhibition read?
A: inactive: 3.38%

Q: `CC(C)=N/N=C(\N)N[N+](=O)[O-]` was tested. Which activity change, negative = inhibition did it give?
A: inactive: 7.88%

Q: `CC(C)c1nc(Nc2ccccc2)n(P(=O)(N(C)C)N(C)C)n1` was tested. Which activity change, negative = inhibition did it give?
A: inactive: 11.2%

Q: How did the activity change, negative = inhibition turn out when `CN(C)C(=O)OCCc1n(C)cc[n+]1C` was run?
A: inactive: -0.324%

Q: How did the activity change, negative = inhibition turn out when `COc1ccc(C2=NCC(CBr)S2)cc1` (stereo unspecified) was run?
A: inactive: -2%

Q: Which activity change, negative = inhibition does the source give for `Cc1ccc(NP(=O)(Oc2ccccc2)Oc2ccccc2)nc1` here?
A: inactive: -24%

Q: Which activity change, negative = inhibition does the source give for `CCc1nc2c(n1)c1c(non1O)c1c2no[n+]1[O-]` here?
A: inactive: -16.7%

Q: How did the activity change, negative = inhibition turn out when `CC(=O)N1C2C3N(C(C)=O)C1C1N(C(C)=O)C(C(N1C(C)=O)N3C(C)=O)N2C(C)=O` was run?
A: inactive: -8.19%

Q: With `O=[N+]([O-])c1cccc2n[nH]nc12` as the compound, how does the activity change, negative = inhibition read?
A: inactive: -10.6%

Q: How did the activity change, negative = inhibition turn out when `Oc1ccccc1CNc1ccccn1` was run?
A: inactive: 3.05%

Q: How did the activity change, negative = inhibition turn out when `O=C(NC(Sc1ccncn1)C(Cl)(Cl)Cl)c1ccccc1` (stereo unspecified) was run?
A: inactive: 10.1%

Q: With `CC(C)CC(=O)NC(Sc1ccc(Cl)cc1)C(Cl)(Cl)Cl` (stereo unspecified) as the compound, how does the activity change, negative = inhibition read?
A: inactive: -7.32%

Q: For `Nc1cc(N)c2nonc2c1[N+](=O)[O-]`, which activity change, negative = inhibition is on record?
A: inactive: -11.8%

Q: For `O=[N+]([O-])C1C(O)C(O)C([N+](=O)[O-])C(O)C1O` (stereo unspecified), which activity change, negative = inhibition is on record?
A: inactive: 0.997%

Q: For `Cc1ccc(N/C(=N/P(=O)(N2CCOCC2)N2CCOCC2)N2CCOCC2)cc1`, which activity change, negative = inhibition is on record?
A: inactive: 0.0174%

Q: How did the activity change, negative = inhibition turn out when `NC(=O)c1cc([N+](=O)[O-])cc([N+](=O)[O-])c1N` was run?
A: inactive: -0.982%

Q: For `Clc1ccc(Cl)c(NC2=NCC(CBr)S2)c1` (stereo unspecified), which activity change, negative = inhibition is on record?
A: inactive: -6.03%

Q: With `CN1CCCC(OC(=O)C(c2ccccc2)c2ccccc2)C1` (stereo unspecified) as the compound, how does the activity change, negative = inhibition read?
A: inactive: 6.56%

Q: How did the activity change, negative = inhibition turn out when `COc1ccccc1OP(=O)(Nc1ccc(C)cn1)Oc1ccccc1OC` was run?
A: inactive: -17.5%

Q: For `Cc1ccc(OP(=O)(Nc2nccs2)Oc2ccc(C)cc2)cc1`, which activity change, negative = inhibition is on record?
A: inactive: -2.95%

Q: Which activity change, negative = inhibition does the source give for `Nc1cccc2ccc([As](=O)(O)O)cc12` here?
A: inactive: 3.49%

Q: For `CCN(N=Nc1nonc1N)c1nonc1N`, which activity change, negative = inhibition is on record?
A: inactive: 2.13%

Q: How did the activity change, negative = inhibition turn out when `CN(C)P(=O)(N(C)C)n1c(Nc2ccccc2)nnc1-c1ccccc1` was run?
A: inactive: -4.74%

Q: `O=P(Nc1nc2ccc(Cl)cc2s1)(c1ccccc1)c1ccccc1` was tested. Which activity change, negative = inhibition did it give?
A: inactive: 3.86%

Q: Which activity change, negative = inhibition does the source give for `O=C(O)c1ccccc1[As](=O)(O)O` here?
A: inactive: -12.3%

Q: With `CC(=O)Nc1ccc([As](=O)(O)O)cc1` as the compound, how does the activity change, negative = inhibition read?
A: inactive: -7.85%

Q: For `CCCC1OP(N)(=O)OCC1CC` (stereo unspecified), which activity change, negative = inhibition is on record?
A: inactive: 9.88%

Q: With `CCOP(=O)(Nc1ccccc1)OCC` as the compound, how does the activity change, negative = inhibition read?
A: inactive: 10.3%

Q: `Cc1cc(SC(NC(=O)c2ccc(F)cc2)C(Cl)(Cl)Cl)ncn1` (stereo unspecified) was tested. Which activity change, negative = inhibition did it give?
A: inactive: -3.42%

Q: With `Cc1ccc(NP(=O)(Oc2ccccc2F)Oc2ccccc2F)nc1` as the compound, how does the activity change, negative = inhibition read?
A: inactive: 11.6%
